Data as given in patent US6835742B2, “Synergistic effect of amlodipine and atorvastatin on cholesterol crystal formation inhibition and aortic endothelial cell nitric oxide release” (priority 2000, dated 2004).

Test: Small angle x-ray diffraction of cholesterol-enriched reconstituted membranes (cholesterol domain formation)
Format: physicochemical
Conditions: 1.1:1 cholesterol to phospholipid mole ratio, 5° C., 74% relative humidity

d-space of surrounding sterol-poor membrane region: 54.4 Å
Compound: CCOC(=O)C1=C(COCCN)NC(C)=C(C(=O)OC)C1c1ccccc1Cl (stereo not shown) [AML, Amlodipine besylate]
